pKi: −log10 of the molar value.
Biological target: Phosphatidylinositol 4,5-bisphosphate 3-kinase catalytic subunit alpha isoform (Homo sapiens, UniProt P42336)
Experiment: Displacement of Alexafluor labelled kinase tracer314 from recombinant N-terminal His6-tagged PI3K p110alpha (unknown origin) incubated for 1 hr by FRET-based LanthaScreen Eu kinase binding assay

Sequences of proteins named here, by UniProt entry; tags and fusion partners are left off.
UniProt P42336, whole entry: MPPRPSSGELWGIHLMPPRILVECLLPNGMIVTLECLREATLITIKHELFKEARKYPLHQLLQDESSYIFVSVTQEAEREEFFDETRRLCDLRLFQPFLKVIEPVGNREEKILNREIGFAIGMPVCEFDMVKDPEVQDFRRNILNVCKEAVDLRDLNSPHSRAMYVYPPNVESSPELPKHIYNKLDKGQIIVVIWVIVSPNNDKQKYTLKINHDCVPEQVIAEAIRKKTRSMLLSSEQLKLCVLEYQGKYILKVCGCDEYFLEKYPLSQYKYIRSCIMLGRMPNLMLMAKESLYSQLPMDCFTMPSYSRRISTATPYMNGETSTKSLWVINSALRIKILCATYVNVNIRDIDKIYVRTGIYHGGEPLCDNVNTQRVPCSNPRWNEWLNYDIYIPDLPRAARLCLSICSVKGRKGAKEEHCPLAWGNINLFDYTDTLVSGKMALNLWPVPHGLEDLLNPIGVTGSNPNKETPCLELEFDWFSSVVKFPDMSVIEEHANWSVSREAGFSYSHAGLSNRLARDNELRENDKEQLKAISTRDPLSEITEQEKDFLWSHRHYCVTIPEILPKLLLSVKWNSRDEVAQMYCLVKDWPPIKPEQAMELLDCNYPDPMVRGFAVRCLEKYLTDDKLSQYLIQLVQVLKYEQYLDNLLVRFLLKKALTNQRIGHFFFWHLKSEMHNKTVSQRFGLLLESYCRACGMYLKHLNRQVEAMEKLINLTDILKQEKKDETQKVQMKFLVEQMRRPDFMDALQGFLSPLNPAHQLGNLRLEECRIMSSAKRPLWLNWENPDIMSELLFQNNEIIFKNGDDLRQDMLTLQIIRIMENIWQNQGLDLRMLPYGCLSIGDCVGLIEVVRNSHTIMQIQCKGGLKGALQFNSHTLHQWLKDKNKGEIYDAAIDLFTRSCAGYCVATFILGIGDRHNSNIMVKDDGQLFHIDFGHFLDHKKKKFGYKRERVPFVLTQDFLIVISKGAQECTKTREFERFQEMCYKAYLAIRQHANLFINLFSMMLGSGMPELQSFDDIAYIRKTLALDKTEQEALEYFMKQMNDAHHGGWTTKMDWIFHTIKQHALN

C[C@H]1COCCN1c1nc(-c2cnc(N)cc2C(F)F)cc(N2CCOCC2)n1
pKi: 7.94
